MC4R barr agon: activates human MC4R beta-arrestin recruitment; P32245; U2OS MC4R beta-arrestin complementation, luminescence; percent of melanotan II response, DMSO zero; activation, % at 8.9 µM; 0.98% of 360,000 active; AID 540308;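 active = activation above a per-plate cutoff, the mean activation of sample wells on that plate plus 3 SD, cut at about 8% in these data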
NALP1 yeast inh: blocks the NALP1 inflammasome reconstituted in yeast. S. cerevisiae NALP1/ASC/caspase-1 growth, X-gal OD620, 72 h. inhibition, % at 10 µM. 0.61% of 280,000 active. AID 2071; in the data active = inhibition mostly above about 24%, no sharp cut-off; inactive = mostly below about 32%
MC4R antag cAMP: antagonists of human melanocortin 4 receptor (MC4R); 0.48% of 360,000 active; MC4R-expressing cells, MTII-stimulated cAMP, LANCE TR-FRET; inhibition, % at 6.5 µM; P32245; AID 540295;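 active = inhibition above its plate's cutoff, the mean of tested wells on that plate plus 3 SD, cut at about 29% in these data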;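 also: 0% = Melanotan II alone and 100% = Melanotan II plus saturating MCL0020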
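Assay system: U2OS-MC4R stable cell line; Also added: Melanotan II; Technique: Eu-cAMP/anti-cAMP TR-FRET, emission 671 nm; Times: 30-min compound, 1-h challenge, 1-h detection, room temperature.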
ALR H2O2 inh: inhibitors of human sulfhydryl oxidase ALR; P55789; purified ALR, DTT oxidation, H2O2 HRP-luminol luminescence; inhibition, % (test concentration not listed); actives 3.8% (n = 290,000); AID 485317;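 active = mean and each replicate at 75% or more; inconclusive = only one of the two met; inactive = neither met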;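 also: stock transfer was 7.5 nL into about 7.5 µL; 0% = neutral wells and 100% = wells with inactivated enzyme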
UUG fidelity: alters start codon recognition fidelity in yeast | S. cerevisiae UUG-firefly luciferase reporter, luminescence/redox ratio | activity score, % at 18.7 µM | hit rate 0.13% among 350,000 | AID 602363;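 active means replicate mean at a twofold rise or more, about +100% in these data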;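 further: firefly luciferase made from a UUG start codon reports start codon fidelity; reporter light over untreated wells divided by growth signal over untreated wells; some hits fall short of that in this replicate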
HDAC3 inh: inhibitors of human histone deacetylase 3; AID 2718; inhibition, % at 8.3 µM; 0.15% of 320,000 active; O15379; recombinant HDAC3, fluorogenic peptide/trypsin coupled, fluorescence; in the data active = inhibition above about 26%, passing the limit was not always enough
MC4R barr conf: human MC4R beta-arrestin agonism confirmation | AID 602192 | U2OS MC4R beta-arrestin recruitment, luminescence; scaled DMSO 0%, Melanotan II 100% | 31% of 2,400 active | activation, % at 8.9 µM | shares compounds with MC4R barr agon;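 active = mean activation across replicates above the hit cutoff set in the earlier primary screen, cut at about 8% in these data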
MOR DOR agonist: counter-screen for MC4R agonists: agonists of mu-delta opioid heterodimer | shares compounds with MC4R barr agon | U2OS PathHunter beta-arrestin, beta-gal luminescence; percent of deltorphin B response, DMSO zero | activation, % at 9.2 µM | 5.8% of 2,400 active | AID 602194;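 active = mean activation across replicates exceeds the hit threshold derived in the earlier primary screen, cut at about 18% in these data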;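 also: 100% = deltorphin B at 0.9 µM final and 0% = DMSO alone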
* = called active by the depositor; x = no result. Rows were chosen to be rich in hits. Some 4.2% of all compounds tested hit in one or more screens of this group.

The opening 2 records, to show the layout:
cpd	canonical_smiles	MC4R antag cAMP	MC4R barr agon	MOR DOR agonist	NALP1 yeast inh
1	NC(CCc1ccccc1)c1csc(Nc2ccc(C(=O)c3ccccc3)cc2)n1 (stereo not drawn)	12.7	13.1*	8.5	x
2	NC(CCc1ccccc1)c1csc(Nc2ccc(C(=O)NCCO)cc2)n1 (stereo not drawn)	6.9	1.2	x	x

cpd	HDAC3 inh	ALR H2O2 inh	UUG fidelity	MC4R barr conf
1	x	x	17.4	20.1*
2	x	x	-1.1	x

The list itself (from the top)
cpd	canonical_smiles	MC4R antag cAMP	MC4R barr agon	MOR DOR agonist	NALP1 yeast inh
1	NC(CCc1ccccc1)c1csc(Nc2ccc(C(=O)c3ccccc3)cc2)n1 (stereo not drawn)	12.7	13.1*	8.5	x
2	NC(CCc1ccccc1)c1csc(Nc2ccc(C(=O)NCCO)cc2)n1 (stereo not drawn)	6.9	1.2	x	x
3	CN(Cc1ccccc1)C(=O)c1ccc(Nc2nc(C(N)Cc3ccc(C(F)(F)F)cc3)cs2)nc1 (stereo not drawn)	20.2	40.3*	33.4*	x
4	CC(=O)c1ccc(Nc2nc(C(N)Cc3ccc(C(F)(F)F)cc3)cs2)cc1 (stereo not drawn)	8.7	7.2	x	x
5	NC(Cc1ccc(C(F)(F)F)cc1)c1csc(Nc2ccccn2)n1 (stereo not drawn)	0.4	7.4	x	x
6	NC(Cc1ccc(C(F)(F)F)cc1)c1csc(Nc2cc(NCc3ccco3)ncn2)n1 (stereo not drawn)	8.2	12.1*	25.8*	x
7	O=C(C[C@H]1C=C[C@H](NC(=O)C2CCC2)[C@@H](CO)O1)NCc1ccncc1	x	x	x	x
8	COc1ccc(NC(=O)N(C)C[C@H]2Oc3c(NC(=O)Nc4ccc(F)cc4)cccc3C(=O)N([C@H](C)CO)C[C@H]2C)cc1	x	x	x	x
9	COc1ccc(NC(=O)Cc2c(SC)c3ccccc3n2Cc2ccccc2)cc1	8.7	24.4*	10.1	24.6
10	CSc1c(CC(=O)NCCCO)n(Cc2ccccc2)c2ccccc12	2.2	-0.4	x	2.8
11	CC(=O)NC[C@@H]1[C@@H](c2ccc(-c3cccnc3)cc2)[C@@H](CO)N1C(=O)C1CCC1	x	x	x	x
12	C[C@H]1CCCCO[C@@H](CN(C)C(=O)Nc2ccc3c(c2)OCO3)[C@@H](C)CN([C@@H](C)CO)C(=O)c2cc(NS(=O)(=O)c3ccccc3)ccc2O1	x	x	x	x

cpd	HDAC3 inh	ALR H2O2 inh	UUG fidelity	MC4R barr conf
1	x	x	17.4	20.1*
2	x	x	-1.1	x
3	x	x	8.2	22.2*
4	x	x	-11.6	x
5	x	x	-6.7	x
6	x	x	-47.0	43.4*
7	x	x	6.1	x
8	x	x	8.9	x
9	-2.8	x	x	1.6
10	-0.2	22.0	-11.2	x
11	x	x	-15.4	x
12	x	x	10.9	x

The list continues:
cpd	canonical_smiles	MC4R antag cAMP	MC4R barr agon	MOR DOR agonist	NALP1 yeast inh
13	c1ccc(-c2csc(Nc3nc(N4CCOCC4)nc(N4CCOCC4)n3)n2)cc1	20.9	14.1*	3.4	5.2
14	O=C(COc1ccccc1Cl)Nc1ccc2oc(=O)ccc2c1	-4.0	11.8*	6.4	-6.6
15	O=C(COc1ccc2ccc(=O)oc2c1)Nc1ccc(N2CCCCC2)cc1	4.8	16.1*	9.0	x
16	CCCC#Cc1ccc2c(c1)O[C@@H](CN(C)S(=O)(=O)c1cccc(F)c1)[C@H](C)CN([C@@H](C)CO)S2(=O)=O	x	x	x	x
17	COc1cccc(NCc2cc3c(C(C)(C)C)nn(-c4ccccc4)c3[nH]c2=O)c1	3.6	13.5*	7.5	28.1
18	O=C(c1ccccc1F)N1C[C@H]2[C@@H](c3ccccc31)[C@@H](CO)N2C(=O)c1ccncc1	x	x	x	x
19	C=CCn1c(O)c(C2=c3ccccc3=NC2=O)s/c1=N/c1nccs1	-4.2	10.4*	3.9	13.5
20	CCNC(=O)C[C@@H]1CC[C@H]2[C@@H](COc3ccc(NC(=O)Nc4c(C)noc4C)cc3C(=O)N2C)O1	x	x	x	x
21	Cc1cc(NC(=O)Cc2csc(-c3ccccc3)n2)ccc1Br	15.3	14.8*	6.8	19.2
22	CCCOc1c(Br)cc(C(=O)OCC(=O)NC(=O)c2cccn2C)cc1OC	0.8	18.4*	7.4	x
23	C[C@@H]1CN([C@H](C)CO)C(=O)c2cc(-c3ccc(F)cc3)cnc2O[C@@H]1CN(C)C(=O)c1ccccc1F	x	x	x	x
24	CO[C@@H]1CN(C)C(=O)c2cc(NC(=O)C3CCCCC3)ccc2OC[C@@H](C)N(C(=O)c2ccccc2)C[C@@H]1C	x	x	x	x

cpd	HDAC3 inh	ALR H2O2 inh	UUG fidelity	MC4R barr conf
13	3.8	1.2	-14.4	11.1*
14	1.8	x	1.1	6.6
15	-19.6	23.6	-16.7	9.1*
16	x	x	-8.1	x
17	-0.7	-9.9	-9.1	0.2
18	x	x	-10.6	x
19	4.0	x	2.0	-0.4
20	x	x	4.2	x
21	-8.2	-0.3	-19.2	3.1
22	3.4	-6.4	-6.0	8.6*
23	x	x	-1.5	x
24	x	x	20.8	x

From entry 23 up to 24, copied from above:
cpd	canonical_smiles	MC4R antag cAMP	MC4R barr agon	MOR DOR agonist	NALP1 yeast inh
23	C[C@@H]1CN([C@H](C)CO)C(=O)c2cc(-c3ccc(F)cc3)cnc2O[C@@H]1CN(C)C(=O)c1ccccc1F	x	x	x	x
24	CO[C@@H]1CN(C)C(=O)c2cc(NC(=O)C3CCCCC3)ccc2OC[C@@H](C)N(C(=O)c2ccccc2)C[C@@H]1C	x	x	x	x

cpd	HDAC3 inh	ALR H2O2 inh	UUG fidelity	MC4R barr conf
23	x	x	-1.5	x
24	x	x	20.8	x

(listing goes on)
cpd	canonical_smiles	MC4R antag cAMP	MC4R barr agon	MOR DOR agonist	NALP1 yeast inh
25	CC(C)c1ccc(/C=C/C(=O)Nc2nc3ccc([N+](=O)[O-])cc3s2)cc1	2.1	21.6*	3.6	17.3
26	CC(=O)c1cccc(NS(=O)(=O)c2ccc(N/C=C/C(=O)c3ccc(F)cc3)cc2)c1	13.7	1.8	x	2.2
27	CC(=O)c1cccc(NS(=O)(=O)c2ccc(N/C=C\C(=O)c3ccc(C)cc3)cc2)c1	5.7	30.3*	5.1	-5.5
28	O=C(Cn1c(=O)n(CC2CCCO2)c(=O)c2ccccc21)c1ccc(Cl)c(Cl)c1 (stereo not drawn)	6.3	10.7*	3.4	4.2
29	C[C@H]1CN([C@@H](C)CO)C(=O)c2cc(NC(=O)C3CCCCC3)ccc2O[C@H]1CN(C)Cc1ccccc1	x	x	x	x
30	COc1cccc(-c2cnc3c(NC=O)cc(-c4cc(C)c(O)c(C)c4)cn23)c1	2.1	8.1	x	x
31	COc1cccc(-c2cc(NC=O)c3ncc(-c4ccc(F)c(Cl)c4)n3c2)c1	7.7	16.2*	5.7	x
32	COc1cccc(-c2cnc3c(NC=O)cc(-c4ccoc4)cn23)c1	-1.8	44.1*	0.4	x
33	CCCNC(=O)c1ccc(-c2nc3ccccc3s2)s1	10.8	11.2*	11.4	19.1
34	CC(C)(c1ccccc1)c1ccc(OCC(O)CNC2CCN(Cc3ccccc3)CC2)cc1 (stereo not drawn)	6.7	25.4*	19.0*	14.9
35	CCOc1ccc(OCC(O)CNC2CCN(Cc3ccccc3)CC2)cc1 (stereo not drawn)	4.8	1.6	x	20.3
36	C[C@H](CO)N1C[C@H](C)[C@@H](CN(C)C(=O)Nc2ccc(F)cc2)OCCCC[C@H](C)Oc2ccc(NC(=O)Nc3ccccc3)cc2C1=O	x	x	x	x

cpd	HDAC3 inh	ALR H2O2 inh	UUG fidelity	MC4R barr conf
25	13.5	27.9	-8.6	4.6
26	2.1	0.0	x	x
27	-1.3	-3.6	5.7	0.2
28	2.2	-12.3	-3.8	-0.5
29	x	x	-3.0	x
30	x	x	-4.0	x
31	x	x	-13.7	10.4*
32	x	x	-13.1	33.9*
33	5.7	x	x	-2.0
34	18.4	-9.3	-14.9	5.0
35	-0.4	0.1	-8.1	x
36	x	x	-2.1	x

Remaining list, next part
cpd	canonical_smiles	MC4R antag cAMP	MC4R barr agon	MOR DOR agonist	NALP1 yeast inh
37	O=C(Cc1cccs1)Nc1cccc(-c2nc3cc4ccccc4cc3[nH]2)c1	19.4	10.6*	5.7	23.0
38	CC(=O)Nc1cccc(NC(=O)Cc2cccs2)c1	-5.1	1.3	x	3.3
39	CN(C)c1ccc(NC(=O)/C=C/c2c(Cl)cccc2Cl)cc1	12.9	10.4*	5.1	38.1
40	CC(/C=N/NC(=O)c1cccs1)=C\c1ccccc1	-15.0	15.9*	8.6	-12.2
41	O=C(N/N=C/C(Cl)=C\c1ccccc1)c1cccs1	12.3	-0.6	x	12.5

cpd	HDAC3 inh	ALR H2O2 inh	UUG fidelity	MC4R barr conf
37	-22.5	24.2	x	13.9*
38	1.7	-7.6	-8.8	x
39	-1.5	27.2	x	-0.6
40	8.4	-4.1	-17.2	2.2
41	-8.9	-1.7	-12.1	x

Compound activity deposited in PubChem BioAssay by several laboratories.
